## Apparent affinities of Ab-14 variants for a coronavirus HR2 peptide

From the AlphaSeq antibody data of Li et al. 2023 (doi:10.1038/s41467-023-39022-2), copy in the FLAb collection.

Antigen: PDVDLGDISGINAS, a 14-residue peptide of the SARS-CoV-2 spike HR2 region.

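The parent was found by panning a naive human phage display library on the peptide. This is the validation round: designs drawn from the data on random variants, tested in the same kind of assay. Group labels follow the data file (Ctrl: baseline library sampled from a position-specific scoring matrix, with some repeated check sequences; Rand: our label for a block that the file lists under HC and that is probably the random mutants of the ten best first-round binders; GP: Gaussian process model; GPLM: also part of the Gaussian process libraries; HC: hill climbing; Gen: genetic algorithm; Gibbs: Gibbs sampling; a sequence that several methods proposed may carry one label only). The assay is AlphaSeq: two haploid yeast populations carry antibody and antigen on their surface. Pairs that bind mate more often; barcode pairs of the diploids are counted by sequencing. Read counts were normalised to the haploid input and turned into Kd by a linear fit to BCL2-family pairs of known affinity, for each replicate. The assay was run in six technical replicates.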

Parent scFv Ab-14: VH joined to VL by the linker GGGGSGGGGSGGGGS. Changes lie in the heavy chain CDRs alone.
VH: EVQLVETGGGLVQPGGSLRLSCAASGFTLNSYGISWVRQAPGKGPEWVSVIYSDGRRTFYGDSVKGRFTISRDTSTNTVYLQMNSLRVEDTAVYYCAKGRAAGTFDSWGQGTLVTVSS
VL: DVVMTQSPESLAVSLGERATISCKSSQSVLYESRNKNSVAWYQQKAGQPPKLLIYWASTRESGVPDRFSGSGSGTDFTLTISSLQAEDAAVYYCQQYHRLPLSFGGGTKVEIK

Changes read parent residue, position, new residue, counted from the first residue of the VH shown.
This list holds designs with at most six substitutions.
Each Kd is an estimate from the mating assay, the geometric mean of the replicates in which the pair was seen; lower is stronger.
Where no diploid with the target was found in any replicate, the entry reads "nd": below detection, most likely a poor binder, though not proof of it.

| changes | group | apparent Kd | detected |
|---|---|---|---|
| T28S/G61S/R100K/S107T | GPLM_Gibbs | 2.5 nM | 6/6 |
| G61D/A101L | GPLM_HC | 19 nM | 6/6 |
| F27H/T104A/S107T | Ctrl | nd | 0/6 |
| Y32H/R56C | Ctrl | 380 nM | 1/6 |
| T28P/G61T/A102S | Ctrl | 880 nM | 2/6 |
| T28R/S31Q/S53T/S63K/R100E/A101V | Ctrl | 290 nM | 4/6 |
| T28D/F59E/A101T | GP_Gen | 3.4 nM | 6/6 |
| I34N/K65R | Ctrl | 30 nM | 4/6 |
| F27T/G99R | Ctrl | nd | 0/6 |
| R100K/S107D | Ctrl | 27 nM | 1/6 |
| T28K/S63N/S107K | Ctrl | nd | 0/6 |
| T28N/R56M/G61E/A101E/A102M/G103A | Ctrl | nd | 0/6 |
| T28Q/N30K | GP_HC | nd | 0/6 |
| T28E/S31E/Y60M/A101T | GP_Gibbs | 3.2 nM | 6/6 |
| A101W/F105A/S107C | Ctrl | nd | 0/6 |
| G99H | Ctrl | nd | 0/6 |
| T28P/F59S | Ctrl | 83 nM | 5/6 |
| F27Y/G61S/K65R/G103D | Ctrl | 17 nM | 2/6 |
| T28D/R100K/A101N/S107A | GP_Gibbs | 1.2 nM | 6/6 |
| T28D/F59A/S63E/A101N | GP_Gibbs | 960 pM | 6/6 |
| T28K/S31E/A101H | GPLM_Gen | 13 nM | 6/6 |
| T28E/A101T/S107A | GPLM_Gibbs | 2.9 nM | 6/6 |
| R56E/A101L | Ctrl | 3.8 nM | 6/6 |
| T28D/G61V/A101V | GPLM_Gibbs | 9.6 nM | 6/6 |
| A101G/F105G/S107I | Ctrl | nd | 0/6 |
| R56V/G99E/R100Y/D106V | Ctrl | nd | 0/6 |
| L29P/G61D/R100Q/A101L/F105M | Rand | 87 nM | 2/6 |
| G26D/T28Q/S31Q/G61S/T104F | Rand | nd | 0/6 |
| S31E/R56Y/G103V/S107T | GPLM_HC | nd | 0/6 |
| L29M/G61Q/A101V | Ctrl | 33 nM | 5/6 |
| T28D/T104H | GPLM_Gen | nd | 0/6 |
| T28E/S31E/A101T/S107V | GP_Gibbs | 2.0 nM | 6/6 |
| S31Q/T58L/S107W | Ctrl | nd | 0/6 |
| T28D/G61V/R100Q/A101V | GP_Gen | 2.2 nM | 6/6 |
| I34Y | Ctrl | nd | 0/6 |
| T28K/G61S/R100K/A101T | GPLM_Gibbs | 3.9 nM | 6/6 |
| G26D/K65V | Ctrl | nd | 0/6 |
| G61S/A101S/S107T | GPLM_HC | 91 nM | 1/6 |
| T28D/G103W/D106V | GP_HC | nd | 0/6 |
| T28D/R100K/T104I | GP_HC | nd | 0/6 |
| G26K/T28S/G61S/R100E | GPLM_Gen | 18 nM | 6/6 |
| T28E/S31M/G61A/R100T | GP_Gibbs | 1.5 nM | 6/6 |
| T28S/S31D/D106R | GPLM_HC | nd | 0/6 |
| S31E/A101T/D106W/S107T | GP_Gibbs | 580 pM | 6/6 |
| T28S/S63K/A101Q | GP_Gen | 1.6 nM | 4/6 |
| N30K/R100Q | Ctrl | 93 nM | 1/6 |
| T28G/G61I/S63Q/R100K/A101T | GP_Gibbs | 22 nM | 1/6 |
| A102T/D106N | Ctrl | 420 nM | 1/6 |
| S31D/A101Y/D106I | GPLM_HC | nd | 0/6 |
| G61D/R100Q/A101L/S107K | GPLM_HC | 23 nM | 6/6 |
| F27T/G61M/R100Q/A101V/A102T/D106N | Ctrl | nd | 0/6 |
| R56T/G61S | GP_HC | nd | 0/6 |
| T28E/S53A/R100Q/S107D | GP_Gen | 1.9 nM | 6/6 |
| G61S/V64E/A102G | Rand | nd | 0/6 |
| F59Y/R100Y/S107M | Ctrl | nd | 0/6 |
| G26T/S31E/Y52H/R57G/G61T/A101F | Rand | 130 nM | 1/6 |
| S31E/A101T/S107K | GPLM_Gen | 1.4 nM | 6/6 |
| T28Q/G61S/R100K/A101T | GP_Gen | 1.1 nM | 6/6 |
| S31K/A102M/T104A/S107L | Ctrl | nd | 0/6 |
| T28Q/R100K | GP_HC | 79 nM | 4/6 |
| T28S/F59A/G61C | GP_Gen | 2.8 nM | 6/6 |
| T28G/G61A/R100K | GPLM_Gen | 7.5 nM | 6/6 |
| T28S/S31N/G61C/A101T | GPLM_Gen | 9.4 nM | 4/6 |
| G26K/T28A/S31E/A101T | GP_Gibbs | 2.5 nM | 6/6 |
| T28C/S35H/D106S | Ctrl | nd | 0/6 |
| S53A/R100V | GPLM_Gen | 6.6 nM | 6/6 |
| G26K/T28N/G61I/A101L | GP_Gibbs | nd | 0/6 |

The last 9 entries again:

changes,group,apparent Kd,detected
S31K/A102M/T104A/S107L,Ctrl,nd,0/6
T28Q/R100K,GP_HC,79 nM,4/6
T28S/F59A/G61C,GP_Gen,2.8 nM,6/6
T28G/G61A/R100K,GPLM_Gen,7.5 nM,6/6
T28S/S31N/G61C/A101T,GPLM_Gen,9.4 nM,4/6
G26K/T28A/S31E/A101T,GP_Gibbs,2.5 nM,6/6
T28C/S35H/D106S,Ctrl,nd,0/6
S53A/R100V,GPLM_Gen,6.6 nM,6/6
G26K/T28N/G61I/A101L,GP_Gibbs,nd,0/6

The authors' rule: three or more of the six replicates give a measured affinity, fewer mean a poor binder.
A sequence measured in both rounds can read differently, since the two assays cover different ranges.
Empty control strains, which show no peptide, gave a signal in 1% of pairings with all heavy chain designs; the median was 120 nM and 95% of these signals were weaker than 7.0 nM. No background was subtracted.